Assay results published in patent US20150073033A1 (University of Texas, published 2015).

Molecular target: endogenous HIF1α (human, UniProt Q16665)
Experiment: co-IP, U87/EGFR cells

binding result: binds
B1: endogenous RelA (other, human, UniProt Q04206 1-551, looked up)
chain: MDELFPLIFPAEPAQASGPYVEIIEQPKQRGMRFRYKCEGRSAGSIPGERSTDTTKTHPTIKINGYTGPGTVRISLVTKDPPHRPHPHELVGKDCRDGFYEAELCPDRCIHSFQNLGIQCVKKRDLEQAISQRIQTNNNPFQVPIEEQRGDYDLNAVRLCFQVTVRDPSGRPLRLPPVLSHPIFDNRAPNTAELKICRVNRNSGSCLGGDEIFLLCDKVQKEDIEVYFTGPGWEARGSFSQADVHRQVAIVFRTPPYADPSLQAPVRVSMQLRRPSDRELSEPMEFQYLPDTDDRHRIEEKRKRTYETFKSIMKKSPFSGPTDPRPPPRRIAVPSRSSASVPKPAPQPYPFTSSLSTINYDEFPTMVFPSGQISQASALAPAPPQVLPQAPAPAPAPAMVSALAQAPAPVPVLAPGPPQAVAPPAPKPTQAGEGTLSEALLQLQFDDEDLGALLGNSTDPAVFTDLASVDNSEFQQLLNQGIPVAPHTTEPMLMEYPEAITRLVTGAQRPPDPAPAPLGAPGLPNGLLSGDEDFSSIADMDFSALLSQISS
